In ChEMBL document CHEMBL3596145, “Structure and inhibition studies of a type II beta-carbonic anhydrase psCA3 from Pseudomonas aeruginosa” (Bioorg Med Chem, 2015):

Molecular target: T1, Carbonic anhydrase (Pseudomonas aeruginosa (strain ATCC 15692 / PAO1 / 1C / PRS 101 / LMG12228), UniProt Q9HVB9)
T1 sequence (Q9HVB9 whole entry): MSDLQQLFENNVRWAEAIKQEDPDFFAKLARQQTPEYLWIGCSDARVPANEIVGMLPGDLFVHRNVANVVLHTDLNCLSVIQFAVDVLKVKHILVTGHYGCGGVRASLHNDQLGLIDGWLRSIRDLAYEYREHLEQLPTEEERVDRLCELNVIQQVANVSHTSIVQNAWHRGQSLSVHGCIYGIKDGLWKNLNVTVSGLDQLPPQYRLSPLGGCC
Assay: biochemical
Type: cell-based, BL21-DE3

`O=P(O)(O)OP(=O)(O)O` [SODIUM PYROPHOSPHATE] was tested, and the Ki was 8.2 mM.
